Bioassay records deposited in PubChem BioAssay by Broad Institute.
Yeast UUG start: alters start codon recognition fidelity in yeast; S. cerevisiae UUG-firefly luciferase reporter, luminescence/redox ratio; activity score, % at 18.7 µM; actives 0.13% (n = 350,000); AID 602363;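 active = replicate mean at a twofold rise or more, about +100% in these data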;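 also: firefly luciferase made from a UUG start codon reports start codon fidelity; reporter light over untreated wells divided by growth signal over untreated wells; some hits fall short of that in this replicate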
C2C12 statin: suppression of simvastatin myotoxicity; rescue of ATP level, % at 7.49 µM; C2C12 myotubes + simvastatin, ATP luminescence, 48 h; scaled: DMSO 0, geranylgeraniol control 100; AID 602340; hit rate 0.78% among 330,000;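 active means mean ATP rescue above about 67%, or every replicate alone reaching that limit, limit read from the data, passing the limit was not always enough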;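 further: myotubes were challenged with 10 µM simvastatin during compound exposure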
E-sel inducer: E-selectin induction on HUVECs. P16581. AID 686992. hit rate 0.37% among 260,000. HUVEC E-selectin immunofluorescence imaging; normalized: neutral wells 0, TNF-alpha wells 100. activation, % at 7.58 µM;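 active means mean E-selectin-positive cell signal at least 10% of the positive control, reached in at least 60% of replicates, without over 20% cell loss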
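Test system: HUVEC; input: 3,000 HUVEC/well; measured by: immunofluorescence imaging; read-out: % PE-positive cells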
PglD DTNB: inhibitors of Campylobacter jejuni PglD acetyltransferase; purified PglD enzyme, DTNB colorimetric CoA detection; inhibition, % at 12.5 µM; hit rate 0.098% among 360,000; AID 602405; in the data active means inhibition above about 16%, passing the limit was not always enough
esBAF inh: SWI/SNF esBAF complex inhibition | AID 602393 | reporter increase, % at 12.5 µM | hit rate 2% among 350,000 | mouse ES cells, Bmi1-luciferase knock-in reporter, 24 h; 100% = twice the neutral-well signal; in the data active means activation above about 40%;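 further: 0% = median of the plate's neutral control wells and 100% = double that signal; a rise in the Bmi1 reporter signal indicates esBAF inhibition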
PGC1a acetyl inh: lowers PGC1a acetylation signal in U2OS cells; AlphaScreen anti-acetyl-lysine; with virally co-expressed GCN5 acetyltransferase; inhibition, % at 15.6 µM; hit rate 0.17% among 350,000; AID 651687;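 active means every replicate shows inhibition of at least 40%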;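 further: 0% = neutral control wells and 100% = positive control wells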
Starred values were filed as active, the others as inactive; nt = no result given. Shown are actives, neighbours in structure and some others; about 2.8% of the full set was active somewhere.

Below each SMILES – Yeast UUG start, C2C12 statin, E-sel inducer, PglD DTNB, esBAF inh, PGC1a acetyl inh
> C[C@@H]1CN([C@@H](C)CO)C(=O)c2cc(NS(=O)(=O)c3ccc(Cl)cc3)ccc2O[C@@H]1CN(C)CC1CCCCC1
  4.4, -15.1, 0.2, 0.5, -1.8, nt
> Cc1noc(C)c1NC(=O)Nc1cccc2c1O[C@H](CN(C)C(=O)Nc1ccc(C(F)(F)F)cc1)[C@H](C)CN([C@@H](C)CO)C2=O
  3.0, 4.8, -0.1, 1.5, -3.1, -1.4
> CCOc1ccccc1CN1CCNC(=O)C1CC(=O)N(C)CCc1ccccn1 (stereo not drawn)
  -9.3, 118.4*, 0.1, -7.2, -5.6, 2.4
> Clc1ccc(C#Cc2cccnc2)cc1
  -21.5, -9.1, 0.2, -5.1, 66.8*, 9.5
> COc1ccc(/C=N/NC(=O)c2ccc(NC(=O)c3cccc([N+](=O)[O-])c3)cc2)c(OC)c1
  nt, 1.6, nt, nt, 3.5, 96.6*
> COc1cc(/C=N/n2cnnc2)ccc1OCc1ccc(C)cc1
  nt, -8.0, nt, nt, 56.9*, 3.1
> COc1cc(/C=N/n2cnnc2)ccc1OCc1ccccc1
  -17.9, 2.8, nt, 2.8, 21.5, 0.5
> COc1ccc(/C=N/NC(=O)c2ccc(NC(=O)c3cccc([N+](=O)[O-])c3)cc2)c(C(=O)O)c1OC
  -5.1, 3.8, nt, -3.1, 0.4, nt
> COc1cc(/C=N/NC(=O)c2cccc([N+](=O)[O-])c2)ccc1OCc1ccc(C)cc1
  -21.8, -47.0, nt, -3.7, 56.4*, -7.4
> CC1=[N+](CC(=O)c2ccccc2)CCn2cccc21
  nt, nt, 3.4, nt, nt, -4.1
> CCC1=[N+](CC(=O)c2ccc(C)cc2)CCn2cccc21
  -10.9, -87.9, 0.1, -1.2, 43.4*, 16.8
> CCOC(=O)CSc1nc2cc(C)ccc2cc1C#N
  -0.9, 7.5, nt, -2.2, 44.3*, -8.2
> CCOC(=O)CSc1nc2ccc(C)cc2cc1C#N
  -21.6, 1.9, nt, -0.3, 71.3*, nt
> Cc1ccc(S(=O)(=O)Nc2ccc3c(c2)C(=O)N([C@@H](C)CO)C[C@H](C)[C@H](CN(C)S(=O)(=O)c2ccc(F)cc2)O3)cc1
  nt, 46.1, 4.6, nt, 2.3, -4.7
> Cc1cc(C)n2nc(SCc3nnc(SCc4ccccc4C)s3)nc2n1
  -3.2, -57.1, nt, -5.6, 82.9*, 1.5
> Cc1cc(C)c(C#N)c(SCC2COc3ccccc3O2)n1 (stereo not drawn)
  -10.0, nt, nt, -1.7, 2.4, 1.7
> Cc1cc(C)n2nc(SCC3COc4ccccc4O3)nc2n1 (stereo not drawn)
  8.1, 1.0, nt, -0.6, 62.7*, 3.9
> Cc1cc(C)n2nc(SCc3nnc(SCc4ccccc4Cl)s3)nc2n1
  -16.0, 5.4, nt, -0.9, 1.0, 11.1
> COc1ccc(S(=O)(=O)Nc2ccc3c(c2)C(=O)N([C@@H](C)CO)C[C@@H](C)[C@H](CN(C)Cc2ccccc2)OCCCC[C@H](C)O3)cc1
  10.3, nt, -0.4, -2.6, 1.8, 5.2
> C/C(Cn1cnc([N+](=O)[O-])n1)=N\NC(=O)c1ccccc1
  -6.4, -2.1, nt, -1.6, 44.0*, -1.1

The closing three entries of the section above lead into the next.
Below each SMILES – Yeast UUG start, C2C12 statin, E-sel inducer, PglD DTNB, esBAF inh, PGC1a acetyl inh
> Cc1cc(C)n2nc(SCc3nnc(SCc4ccccc4Cl)s3)nc2n1
  -16.0, 5.4, nt, -0.9, 1.0, 11.1
> COc1ccc(S(=O)(=O)Nc2ccc3c(c2)C(=O)N([C@@H](C)CO)C[C@@H](C)[C@H](CN(C)Cc2ccccc2)OCCCC[C@H](C)O3)cc1
  10.3, nt, -0.4, -2.6, 1.8, 5.2
> C/C(Cn1cnc([N+](=O)[O-])n1)=N\NC(=O)c1ccccc1
  -6.4, -2.1, nt, -1.6, 44.0*, -1.1
> C/C(Cn1nnc([N+](=O)[O-])n1)=N\NC(=O)c1ccccc1
  -11.4, 43.1, nt, 3.5, 9.6, 2.5
> Cc1occc1-c1nnc(SCC(=O)c2ccc(Cl)cc2)n1CC1CCCO1 (stereo not drawn)
  6.2, 136.5*, nt, -3.7, -6.8, -3.5
> CCn1c(SCC(=O)c2ccc(C)cc2)nnc1-c1ccoc1C
  -14.3, 0.3, nt, 4.3, 88.4*, 0.1
> CCn1c(SCC(=O)c2ccc(Cl)cc2)nnc1-c1ccoc1C
  -27.6, -8.2, nt, -2.5, 9.3, -9.7
> CC(C)NC(=O)Nc1ccc2c(c1)C(=O)N([C@H](C)CO)C[C@H](C)[C@H](CN(C)S(=O)(=O)c1cn(C)cn1)OCCCC[C@@H](C)O2
  -12.7, nt, nt, 42.4, -2.7, 18.4
> CN(CC(=O)Nc1c(Cl)cccc1Cl)C(=O)CNC(=O)c1sc2ccccc2c1Cl
  -15.9, 1.0, nt, -3.2, 35.0, 1.2
> COc1ccc(NC(=O)CN(C)C(=O)CNC(=O)c2sc3ccccc3c2Cl)cc1
  -6.5, -5.9, 0.0, -3.1, 51.0*, -7.3
> C[C@]12c3[nH]c4ccc(Cl)cc4c3CCN1C(=O)[C@@H](CC(=O)NCc1ccco1)C[C@@H]2C(=O)N1CCCCC1
  1.5, -6.0, 53.0*, -1.4, 0.1, 5.6
> O=C(C1CC1)N1CC(=O)N2[C@@H](CO)[C@@H](c3ccc(C#CC4CCCC4)cc3)[C@@H]2C1
  nt, nt, 0.1, nt, nt, -2.1
